Laboratory results reported in US10209240B2, “Predicting human developmental toxicity of pharmaceuticals using human stem-like cells and metabolomic ratios” (STEMINA BIOMARKER DISCOVERY, INC., priority 2012, dated 2019).

How the values were obtained:
WA09 hES cells [1] = experiment: Phase 2 targeted biomarker assay, ornithine/cystine ratio, 9-point dose response; details: training set; teratogenicity potential scored against therapeutic Cmax
WA09 hES cells [2] = test system: WA09 hES cells
Humans = details: training and test set; cited from earlier work
WA09 hES cells [3] = test system: WA09 hES cells; remark: listed apart in the source

## Cytosine Arabinoside
WA09 hES cells [1]
  O/C Ratio Prediction: TER
WA09 hES cells [2]
  Viability Prediction: TER
WA09 hES cells [2]; human
  Cytotoxicity at the Cmax exposure level: greater than 30%
Humans
  Humans (known human developmental toxicity): TER
WA09 hES cells [3]
  Targeted Biomarker Assay prediction: TER
